Measured values published in patent publication US20160152711A1.

Target: sEGFR domain III (residues 310-512) (human) (UniProt P00533)
Assay: SPR (Biacore T100), steady state, sEGFRdIII amine-coupled to CM5 chip

Q: For Fab 425, which Kd is on record?
A: 91 nM
